# Reference: PubChem BioAssay AID887 (National Center for Advancing Translational Sciences (NCATS), 2007)
# The chains behind the UniProt entries cited, without tags or fusion partners. Where a name states a change or a piece, a line headed by the entry shows the natural chain unless it says otherwise.
# UniProt P16050: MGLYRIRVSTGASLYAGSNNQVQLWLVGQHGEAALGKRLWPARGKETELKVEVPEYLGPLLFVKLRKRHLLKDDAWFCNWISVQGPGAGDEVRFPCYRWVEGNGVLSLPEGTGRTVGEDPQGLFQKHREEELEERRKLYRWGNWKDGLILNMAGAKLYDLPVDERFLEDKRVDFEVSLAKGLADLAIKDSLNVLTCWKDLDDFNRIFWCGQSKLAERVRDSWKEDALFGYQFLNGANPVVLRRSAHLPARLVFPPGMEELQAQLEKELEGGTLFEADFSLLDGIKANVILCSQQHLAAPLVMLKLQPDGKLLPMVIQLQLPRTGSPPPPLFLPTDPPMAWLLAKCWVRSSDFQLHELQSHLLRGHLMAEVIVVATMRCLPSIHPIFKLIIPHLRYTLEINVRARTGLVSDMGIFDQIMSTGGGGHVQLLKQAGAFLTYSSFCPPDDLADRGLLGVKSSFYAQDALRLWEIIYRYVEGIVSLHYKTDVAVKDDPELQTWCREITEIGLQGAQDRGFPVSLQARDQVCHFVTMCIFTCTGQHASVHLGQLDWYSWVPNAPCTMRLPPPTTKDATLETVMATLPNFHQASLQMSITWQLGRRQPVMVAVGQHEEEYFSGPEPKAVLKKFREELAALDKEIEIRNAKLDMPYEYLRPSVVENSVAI
# Screen size: about 74,000 compounds; about 1,100 (1.5%) were called active. Only results without a clear call are listed here; the source files them as inconclusive. Calls come from the whole dose curve; as a rule, active = well fitted inhibition curve with a large enough effect; inconclusive = small, poorly fitted or top-dose-only effect; inactive = no such curve, though single readings can be large or run the other way.
# Target: Polyunsaturated fatty acid lipoxygenase ALOX15 (Homo sapiens) (UniProt P16050)
# Test: qHTS Assay for Inhibitors of 15-hLO (15-human lipoxygenase); note: nearly all actives have a fitted effect of over 55% in size
# Settings: purified 15hLO-1, xylenol orange hydroperoxide absorbance
# Potency is the fitted concentration of half-maximal effect.
row,Compound,Potency
1,Cc1c2non([O-])c-2c(C)[n+](=O)[n+]1[O-],inconclusive: 25.1 µM
2,CN(C(=O)Cc1ccc(Cl)c(Cl)c1)[C@@H]1CC[C@@]2(CCCO2)C[C@H]1N1CCCC1,inconclusive: 39.8 µM
